Values of other authors, collected in US20090270306A1, “Glass Storage” (priority 2005, published 2009).

Conditions: initial pKa, buffers tested for stain inhibitor performance (Table 1); cited from earlier work

Zinc Sulphate
pKa: 7.7
